Laboratory results from patent publication US20220339596A1, “METHOD FOR PRODUCING RADICALS, METHOD FOR S[…], AND CANCER TREATMENT DRUG” (priority 2019, published 2022).
Read-outs that look alike come from different tables or passages of the source.

Columns and labels:
[1] = for Chlorine dioxide radicals / Chlorite ions: 14.5 mmol/L sodium chlorite
[2] = 14.5 mmol/L sodium chlorite
[3] = 7.25 mmol/L sodium chlorite, pH 7.0, 455 nm LED 157 mW/cm^2 40 minutes
[4] = pH 7.0, 455 nm LED 157 mW/cm^2 40 minutes, n=6
[5] = pH 7.0, photoirradiation not performed
[6] = pH 7.5, 455 nm LED 157 mW/cm^2 40 minutes, n=6
[7] = pH 8.0, 455 nm LED 157 mW/cm^2 40 minutes, n=6

Q: Which “molar concentration of chlorine dioxide radicals” value [1, 3] does the source give for sodium chlorite here?
A: 375 µmol/L

Q: And the “molar concentration of chlorite ions” value [1, 3]?
A: 350 mmol/L

Q: And the Chlorine dioxide radicals [1, 4]?
A: 700 to 800 µmol/L

Q: And the Chlorite ions [1, 4]?
A: 7.5 to 8.5 mmol/L

Q: And the Chlorine dioxide radicals [1, 5]?
A: 0 µmol/L

Q: What about the Chlorite ions [1, 5] of the same substance?
A: 14.5 mmol/L

Q: And the Chlorine dioxide radicals [1, 6]?
A: 500 to 600 µmol/L

Q: What about the Chlorite ions [1, 6] of the same substance?
A: 9.5 to 10.5 mmol/L

Q: And the Chlorine dioxide radicals [1, 7]?
A: 350 to 450 µmol/L

Q: And the Chlorite ions [1, 7]?
A: 11.0 to 12.0 mmol/L

Q: What about the “highest ClO2 radical concentration” value ([2]; 455 nm LED 300 mW/cm^2, 20 minutes from start of irradiation) of the same substance?
A: about 0.7 mmol/L

Q: And the oxygen concentration ([2]; 455 nm LED 300 mW/cm^2, approximately 20 minutes)?
A: about 0.6 mmol/L
